Measurements from patent US11230719B2, “Retroviral vector having immune-stimulating activity” (DENOVO BIOPHARMA LLC, priority 2014, dated 2022).

Test system: CTLL-2
Experiment: IL-2 bioactivity, CTLL-2 proliferation (3H-thymidine incorporation)
Format: cell-based, mouse
Details: produced by HA-L2 cells; vs recombinant IL-2 from E. coli
Protocol: To measure the bioactivity of recombinant hIL-2 and mIL-2 produced from the HA-L2 cells, cell proliferation assay is performed using a murine cytotoxic T-cell line derived from C57/Bl/6 mouse strain, CTLL-2, which constitutively express IL-2 receptors. CTLL-2 cell growth depends greatly on the presence of IL-2. The bioactivity of IL-2 is determined by the level of ^3H-thymidine incorporation into the DNA of proliferating cells. Due to >60% homology between mouse and human IL-2, the cell line responds to both hIL-2 and mIL-2 in a dose dependent manner in the concentration range of approximately 50 pg/mL to 50 ng/mL. […] In addition, the level of CD expression from pBA9b-IFNg-yCD2 transduced HA-L2 cells is also detected by immunoblotting using an antibody against CD.

## hIL-2: recombinant human IL-2 produced by the HA-L2 cells
  IL-2 bioactivity: comparable
